Source: PubChem (ICCB-Longwood Screening Facility, Harvard Medical School)
Only some compounds are listed: those with a hit (about 0.46% of all), similar ones and a draw of the others.
GIV Gai3 FP – inhibitors of GIV peptide binding to Galpha-i3, primary screen, biochemical, fluorescence polarization, FITC-GIV GBA peptide, rat Galphai3; Guanine nucleotide-binding protein G(i) subunit alpha-3 (Rattus norvegicus), P08753; 0.42% of 210,000 active; percent of control (FP), % (concentration not given with the values); 90 min; stronger effect = lower value; scaled: aluminum fluoride 0%, vehicle 100%;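 active = replicate mean at 85% of control or lower, very high polarization wells dropped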;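 note: wells of about 15 µL received 100 nL stock; the first replicate is given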
HCMV UL50-53 inh – inhibitors of HCMV UL50-UL53 interaction, biochemical, HTRF. HCMV UL50-UL53 nuclear egress complex (human cytomegalovirus). normalized percent inhibition. inhibition, % (concentration not given with the values). hit rate 0.15% among 190,000; in the data active = inhibition above about 27%, passing the limit was not always enough
GIV Gai FP conf – inhibitors of GIV peptide binding to Galpha-i3, confirmation, biochemical, fluorescence polarization, FITC-GIV peptide, rat Galphai3. hit rate 38% among 580. stronger effect = lower value. fluorescence polarization, mP at 100 µM. shares compounds with GIV Gai3 FP. AID 1259350, 2017;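 active = inhibition score of 15 or more, meaning 100 minus mean polarization as percent of control over three replicates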
GIV Gai AS conf – inhibitors of GIV binding to Galpha-i3, confirmation, orthogonal assay for GIV-Galpha-i inhibitor project, biochemical, AlphaScreen, His-GIV, GST-Galphai3; purified proteins, 90 min; stronger effect = lower value; AlphaScreen counts at 100 µM; hit rate 39% among 580; shares compounds with GIV Gai3 FP;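 active = inhibition score at or above a set limit, where the score is 100 minus the three-replicate mean percent of control signal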
Of the large screens only hits and unclear results are named; the others gave an inactive call (follow-up assays come after a bar, where they were run); ! = repeats disagree.

By UniProt entry, the sequences of proteins in these tests, tags left out.
Guanine nucleotide-binding protein G(i) subunit alpha-3 (Rattus norvegicus), P08753, UniProt P08753, whole entry, looked up: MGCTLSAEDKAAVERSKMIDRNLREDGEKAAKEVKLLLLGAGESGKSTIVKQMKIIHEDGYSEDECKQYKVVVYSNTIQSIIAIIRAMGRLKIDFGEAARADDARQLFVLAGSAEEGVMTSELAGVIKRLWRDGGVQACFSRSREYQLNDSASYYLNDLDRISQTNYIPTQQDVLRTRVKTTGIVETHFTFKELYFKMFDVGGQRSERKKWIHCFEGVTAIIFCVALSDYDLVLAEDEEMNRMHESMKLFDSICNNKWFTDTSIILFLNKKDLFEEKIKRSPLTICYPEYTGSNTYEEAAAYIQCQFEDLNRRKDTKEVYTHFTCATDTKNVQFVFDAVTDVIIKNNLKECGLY

Cc1ccc(C)n1-c1ccc(C(=O)O)c(C(=O)O)c1	GIV Gai3 FP 60.1 | GIV Gai FP conf 48.6 | GIV Gai AS conf 3015
Cc1ccc(C)n1-c1cccc(C(=O)O)c1	none (no result: GIV Gai3 FP)
COc1ccc(C2=NN3C(C2)c2cc(Cl)ccc2OC3c2ccc(OC)c(OC)c2)cc1 (centres undefined)	none (no result: HCMV UL50-53 inh)
Cc1ccccc1C(=O)Nc1ccc2c3c1C1C=CCC1CN3CC1CC=CC21 (centres undefined)	none (no result: HCMV UL50-53 inh)
CCOC(=O)CNC(=O)Nc1nc2c(s1)CCCCCC2	none
Cc1nn(-c2ccc(F)cc2)c2sc(C(=O)NC(C)C)cc12	none (no result: HCMV UL50-53 inh)
Oc1ccc(Cl)cc1C1=Nc2ccccc2N=C(c2ccc(Cl)cc2)C1	none (no result: HCMV UL50-53 inh)
Oc1ccccc1C1=Nc2ccccc2N=C(c2ccc(Cl)cc2)C1	GIV Gai3 FP 72.2! | GIV Gai FP conf inactive | GIV Gai AS conf inactive
O=C(O)CCC/C=C\C[C@H]1C(=O)C=C[C@@H]1/C=C/[C@@H](O)COc1ccccc1	none (no result: GIV Gai3 FP)
Cc1ccc(N(Cc2nc3nc(C)cc(=O)n3[nH]2)C(=O)C(C)C)cc1	none
CCCCSc1nnc2c(n1)OC(/C=C/c1ccccc1[N+](=O)[O-])Nc1ccccc1-2 (centres undefined)	GIV Gai3 FP 79.5 | GIV Gai FP conf inactive | GIV Gai AS conf 33401
CCSc1nnc2c(n1)OC(c1cc(Br)ccc1OC)Nc1ccccc1-2 (centres undefined)	none
CCCSc1nnc2c(n1)OC(c1ccco1)Nc1ccccc1-2 (centres undefined)	GIV Gai3 FP 78.0 | GIV Gai FP conf inactive | GIV Gai AS conf 5688
CCSc1nnc2c(n1)OC(c1ccc(Br)cc1)Nc1ccccc1-2 (centres undefined)	GIV Gai3 FP 23.6 | GIV Gai FP conf 29.9 | GIV Gai AS conf inactive
CCOC(=O)COc1ccccc1C1Nc2ccccc2-c2nnc(SC)nc2O1 (centres undefined)	none
CCCSc1nnc2c(n1)OC(c1ccccc1)Nc1ccccc1-2 (centres undefined)	none
CSc1nnc2c(n1)OC(/C=C/c1ccccc1[N+](=O)[O-])Nc1ccccc1-2 (centres undefined)	none
CCCSc1nnc2c(n1)OC(c1ccccc1OCC(=O)OCC)Nc1ccccc1-2 (centres undefined)	GIV Gai3 FP 21.4 | GIV Gai FP conf inactive | GIV Gai AS conf 34096
Cc1ccc2c(c1)C=C(C(=O)Nc1ccc(C)c(C)c1)C=CO2	none
Cc1occc1-c1nnc(SC(C)c2nc3sc4c(c3c(=O)[nH]2)CCC(C)C4)n1N (centres undefined)	none (no result: GIV Gai3 FP)
CC(=O)N(CC12CC3CC(CC(C3)C1)C2)C1CC(=O)N(c2cccc(Cl)c2)C1=O (centres undefined)	none (no result: GIV Gai3 FP)
O=C(NC1CCCC1)N1CCC(n2cnc3cccnc32)CC1	none
CCC1C(C#N)=C(SC(C(N)=O)c2ccccc2)NC2=C1C(=O)CC(C)(C)C2 (centres undefined)	none (no result: GIV Gai3 FP)
COc1ccc(C(=O)NCc2ccoc2C(=O)O)cc1	none (no result: GIV Gai3 FP)
COc1ccccc1OCc1ccoc1C(=O)O	GIV Gai3 FP 81.8 | GIV Gai FP conf inactive | GIV Gai AS conf 18278
CC(C)(C)c1csc(-c2csc(S(=O)(=O)NCc3ccc(F)cc3F)c2)n1	none (no result: HCMV UL50-53 inh)
COc1ccc(CCNc2ncc3c(n2)CC(c2ccc(C)cc2)CC3=O)cc1 (centres undefined)	none
Cc1cc(CNC(=O)CSc2nnc3ccccn23)cc(C)c1O	none (no result: GIV Gai3 FP)
O=C1C(Cc2ccc(-c3nn[nH]n3)cc2)=C(c2ccccc2)S(=O)(=O)c2ccccc21	none | GIV Gai FP conf inactive | GIV Gai AS conf 36755
O=C1c2ccccc2S(=O)(=O)c2cc(-c3nn[nH]n3)ccc21	none
CC(C)SC(=O)c1scc(S(C)(=O)=O)c1Cl	none
Cc1ccc(C(=O)O)cc1Nc1nc2ccccc2n2cnnc12	GIV Gai3 FP 75.6 | GIV Gai FP conf 42.7 | GIV Gai AS conf 18787
CCOC(=O)c1ccc(Nc2nc3ccccc3n3cnnc23)cc1	none
Cc1cc(=O)oc2cc(Oc3nc(-c4cccnc4)nc4ccccc34)ccc12	none
CCn1c(CSc2nc3ccccc3s2)nnc1SCc1ccc(C(=O)OC)o1	none (no result: GIV Gai3 FP)
COc1ccccc1Nc1nc2ccc(C)cc2n2nnnc12	GIV Gai3 FP 73.9 | GIV Gai FP conf inactive | GIV Gai AS conf inactive
CCOC(=O)c1ccccc1Nc1nc2ccc(C)cc2n2nnnc12	none
Cc1cc(CN2CCN(C3CCCCC3)CC2)on1	none (no result: HCMV UL50-53 inh)
O=C1/C(=C\c2cccnc2)SC(=S)N1C1CCS(=O)(=O)C1 (centres undefined)	none | GIV Gai FP conf inactive | GIV Gai AS conf inactive
O=C1/C(=C/c2cn(-c3ccccc3)nc2-c2cccs2)SC(=S)N1C1CCS(=O)(=O)C1 (centres undefined)	none
CN1CCCN(c2nc3ccccc3nc2NS(=O)(=O)c2ccc(Cl)cc2)CC1	none (no result: GIV Gai3 FP)
Cn1c(=O)c2[nH]c(-c3ccccc3)nc2n(C)c1=O	none
CN(C)c1ccc(-c2nc3c([nH]2)c(=O)n(C)c(=O)n3C)cc1	GIV Gai3 FP 75.4 (no result: HCMV UL50-53 inh) | GIV Gai FP conf inactive | GIV Gai AS conf inactive
O=C(CSc1nc2ccc(N=Cc3ccccc3O)cc2s1)NCCOc1ccccc1	none (no result: GIV Gai3 FP)
COC(=O)c1cc2sccc2n1Cc1ccc(Cl)cc1	none
Nc1cc(N)c2cc(-c3ccccc3)oc2c1	GIV Gai3 FP 81.0, HCMV UL50-53 inh 95.2 | GIV Gai FP conf inactive | GIV Gai AS conf inactive
O=c1cc(-c2ccccc2)oc2cc(Cl)ccc12	none (no result: GIV Gai3 FP)
Cc1nn(-c2nc3ccccc3n2C)c2c1C(c1ccc(F)cc1F)CC(=O)N2 (centres undefined)	none (no result: HCMV UL50-53 inh)
O=C(O)c1cccc(S(=O)(=O)/N=C2/C=C(NS(=O)(=O)c3ccccc3)C(=O)c3ccccc32)c1	GIV Gai3 FP 62.6 (no result: HCMV UL50-53 inh) | GIV Gai FP conf inactive | GIV Gai AS conf 12814
O=C1C(NS(=O)(=O)c2ccccc2)=C/C(=N\S(=O)(=O)c2ccc(F)cc2)c2ccccc21	none (no result: HCMV UL50-53 inh)
O=C(NCCO)C1=C(N2CCOCC2)/C(=C\c2ccccc2)CC1	none (no result: GIV Gai3 FP)
COCCn1c(=NC(=O)c2ccc3c(c2)OCCO3)sc2cc(NC(C)=O)ccc21	GIV Gai3 FP 80.4 (no result: HCMV UL50-53 inh) | GIV Gai FP conf inactive | GIV Gai AS conf inactive
CCOCCn1c(=NC(=O)c2ccc3c(c2)OCCO3)sc2cc(OCC)ccc21	none (no result: HCMV UL50-53 inh)
c1ccc2c(c1)nc(NC1CC1)c1nnnn12	none (no result: HCMV UL50-53 inh)
CCN(Cc1ccccc1)C(=O)c1cc2c(=O)[nH]c3ccc(C)cc3c2s1	none
CN(Cc1ccccc1)C(=O)c1cc2c(=O)[nH]c3ccccc3c2s1	none | GIV Gai FP conf inactive | GIV Gai AS conf inactive
FC(F)(F)c1cccc(Nc2nnnn2C2CCCC2)c1	none (no result: GIV Gai3 FP)
Cc1noc(C)c1C(=O)OCC(=O)NCC12CC3CC(CC(C3)C1)C2	none (no result: GIV Gai3 FP)
Cc1ccc(NCC(O)Cn2c(-c3ccccc3)c(-c3ccccc3)c3cc(C)ccc32)cc1 (centres undefined)	none (no result: HCMV UL50-53 inh)
CCc1c(C)c(C#N)c2nc3ccccc3n2c1N1CCCC1	none
CCc1c(C)c(C#N)c2nc3ccccc3n2c1-n1nc(C)cc1C	none | GIV Gai FP conf inactive | GIV Gai AS conf inactive
Cc1ccc(C(C)(O)C(CN2CCOCC2)c2ccccc2)cc1 (centres undefined)	none
